High-throughput results deposited in PubChem BioAssay by National Center for Advancing Translational Sciences (NCATS).
Only some compounds are listed: those with a hit (about 0.72% of all), similar ones and a draw of the others.
RXFP1 antag = antagonists of human relaxin receptor RXFP1; Q9HBX9; activity change, negative = inhibition, % at 57.5 µM; AID 1259400; HEK293-RXFP1, relaxin-stimulated cAMP HTRF, 30 min; hits give low values; 0.59% of 350,000 active;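 active means activity change of -60% or lower, but not beyond a set lower limit; inconclusive means change between -60% and -40%, or beyond the set limit; inactive means change above -40%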; further: on the % scale 0 is the no-effect control and ±100 the full control effect
ERG Ets-DNA blk = ERG Ets/DNA interaction inhibition. Potency, µM (series often up to 76.9 µM), inactives show at the highest dose FP activity, negative = inhibition, hits mostly inhibitors. AID 624246. P11308. 0.028% of 370,000 active. fluorescence polarization, His-ERG Ets domain / labelled DNA; active means well fitted inhibition curve with a large enough effect in the polarisation, with a control signal flat; inconclusive means small, poorly fitted or top-dose-only effect, or effect the other way, or a change in a side signal; inactive means no such curve, though single readings can be large or run the other way; the % refers to the polarisation;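 further: polarization taken with two DNA probes labelled with fluorescein and Texas red; potency means the concentration at half of the fitted maximal effect; % of control where 0% means no effect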
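His-tagged ERG Ets domain (1 uM in the protein solution; 300mM KCl, 50mM Tris-HCl, 1mM EDTA, 1mM DTT, pH 7.5) received compound, then a probe mix of 5 nM fluorescein-DNA and 100nM Texas-615-DNA. Fluorescence polarization was read for both dyes.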
RXFP1 ag = activates the human relaxin receptor RXFP1; Q9HBX9; HEK293T-RXFP1 cAMP TR-FRET, 30 min; response scale: percent of porcine relaxin response, buffer zero; Potency, µM (doses to about 57.5 µM), for inactives: at the top dose activation, most hits filed as activators; 0.3% of 370,000 active; further: potency means the concentration at half of the fitted maximal effect; on the % scale 0 is the no-effect control and ±100 the full control effect; nearly all actives have a fitted effect of over 60% in size
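cAMP rise read by TR-FRET after 30 min, 37C compound exposure (up to 58 uM) in RXFP1-transfected HEK293 cells with Ro 20174 present. EC50 from Hill-equation fits, with 29 nM porcine relaxin as 100% and buffer as basal.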
Mito fusion act = inhibitors of mitochondrial division or activators of mitochondrial fusion; S. cerevisiae fusion-defective mutant growth rescue, CellTiterGlo 48 h; Potency, µM (highest dose often 46.1 µM), inactives show top-dose growth rescue (activation), actives largely listed as activators; 0.23% of 320,000 active; AID 485298; further: potency means the concentration at half of the fitted maximal effect; % of control where 0% means no effect; nearly all actives have a fitted effect of over 45% in size
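Temperature-sensitive fusion-defective S. cerevisiae (e.g. fzo1-1, mgm1-5) were grown with compound in YPEG medium (3% ethanol, 3% glycerol) for 48 hours at 37C. Growth rescue was measured as viability by CellTiterGlo luminescence after 10 minutes at ambient.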
miR-21 reporter = miR-21 reporter, rising signal | AID 2288 | HeLa miR-21 FLuc reporter, luciferase, 48 h | 340,000 tested, under 10 active | Potency, µM (doses to about 38.3 µM), for inactives: at the top dose reporter change, positive = more light; active = well fitted rising curve with a large enough effect; inconclusive = small, poorly fitted or top-dose-only effect; inactive = no such curve, though single readings can be large or run the other way;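 note: % of control where 0% means no effect; miR-21 action dims this reporter so a rising signal means less miR-21 action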
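Compounds were titrated across several concentrations (up to approximately 40 uM) and incubated 48 hours with HeLa miR-21-FLuc reporter cells (miR-21 target sequence downstream of FLuc, endogenous miR-21). Readout was firefly luciferase luminescence after lytic detection reagent.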
S-ASM inh = human S-ASM enzyme inhibition; P17405; placental ASM, HMU-PC fluorogenic substrate, 60 min; Potency, µM (highest dose often 57.5 µM), for the others: at the highest dose activity change, negative = inhibition, usual class: inhibitors; 0.006% of 340,000 active; further: potency means the concentration at half of the fitted maximal effect
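Fluorogenic HMU-PC substrate (9 uM final) is turned over by placental ASM in 60 min at 37 C after a 10 min compound preincubation. Reaction ended by alkaline stop (pH 10), with fluorescence read at 386/447 nm.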
* marks the source's active call; other numbers are inactive results; ? = inconclusive; nt = no result; ! = not confirmed by another sample. Unless noted, the call rests on the fitted dose curve; in most records, active means well fitted curve in the direction sought with a large enough effect; inconclusive means small, poorly fitted or top-dose-only effect, or another doubt; inactive means no such curve, though single readings can be large; an effect the other way counts as inactive or inconclusive.

[1] CCCCCCn1c2c(c(=N)c3c1CCC3)CCC2
[2] CCCCCCCCCn1c2c(c(=N)c3c1CCC3)CCC2
[3] COc1ccc(-c2cn3c(n2)sc2cc(C(=O)Nc4ccc(F)cc4Cl)ccc23)cc1
[4] O=C1C=C(N2CCCCCC2)C2(CCCCC2)O1
[5] CC1(c2ccccc2)NC(=O)N(CC(=O)N2CCN(S(=O)(=O)c3ccccc3[N+](=O)[O-])CC2)C1=O (stereo unspecified)
[6] CC(c1ccccc1)N1C(=O)c2ccc(C(=O)Nc3ccc(Br)cc3C(=O)O)cc2C1=O (stereo unspecified)
Assay by compound | 1 | 2 | 3 | 4 | 5 | 6
RXFP1 antag | 8 | -70* | -3 | -61* | -5 | -5
ERG Ets-DNA blk | 1% | 5% | -3% | 0% | -2% | 37%
Mito fusion act | 3% | -18% | nt | 6% | 2% | -3%
S-ASM inh | 1% | -15% | nt | 3% | 2% | 11%
miR-21 reporter | ? | ? | -40% | 7% | 0% | 5%
RXFP1 ag | 3% | 1% | 5% | -1% | 0% | -3%

[7] CC(c1ccccc1)N1C(=O)c2ccc(C(=O)Nc3ccccc3C(=O)O)cc2C1=O (stereo unspecified)
[8] COc1ccccc1NC(=O)c1ccc(C)c(S(=O)(=O)N2CCCCC2)c1
[9] Cc1ccc(C(=O)Nc2ccccc2C(=O)O)cc1S(=O)(=O)N1CCCCCC1
[10] O=C(CSc1nncn2c1cc1occc12)Nc1ccccc1C(F)(F)F
[11] Cc1ccccc1-c1cc(C(=O)Nc2sc(C(=O)OC(C)C)c(C)c2C#N)c2ccccc2n1
[12] COC(=O)c1sc(NC(=O)c2cc(-c3ccccc3)nc3ccccc23)c(C#N)c1C
Assay by compound | 7 | 8 | 9 | 10 | 11 | 12
RXFP1 antag | -74* | -7 | -102* | -7 | -65* | -19
ERG Ets-DNA blk | 1% | 15% | -1% | -2% | 2% | 0%
Mito fusion act | -1% | 12% | nt | nt | 2% | 4%
S-ASM inh | 16% | nt | nt | nt | -27% | -18%
miR-21 reporter | 12% | 23% | -9% | 10% | ? | 26%
RXFP1 ag | 2% | 3% | 0% | ? | 1% | 2%

[13] CCOC(=O)/C(=N\Nc1ccccc1Cl)N1CC(C)OC(C)C1 (stereo unspecified)
[14] CCOC(=O)/C(=N\Nc1cc(Cl)ccc1Cl)N1CC(C)OC(C)C1 (stereo unspecified)
[15] Cc1c(C(=O)N(C)Cc2ccccc2)sc2nc(-c3ccc(F)cc3)cn12
[16] CCOC(=O)c1sc(=NC(=O)c2cccs2)n(C)c1C
[17] CCOC(=O)c1sc(=NC(=O)c2ccc(Cl)s2)n(C)c1C
[18] O=C(Nc1ccc2c(c1)CCCN2C(=O)c1cccs1)c1ccccc1Cl
Assay by compound | 13 | 14 | 15 | 16 | 17 | 18
RXFP1 antag | -67* | -11 | -68* | -13 | -7 | -7
ERG Ets-DNA blk | 3% | -4% | -4% | -3% | 5% | -1%
Mito fusion act | 2% | 0% | nt | 0% | 7% | nt
S-ASM inh | -4% | -4% | nt | 21% | 25% | nt
miR-21 reporter | -1% | 1% | 29% | -61% | -61% | 18%
RXFP1 ag | 2% | 0% | 4% | 28µM* | 4% | 0%

[19] CCOc1ccc(C(=O)Nc2nnc(SCc3cc(=O)c4cc(C)ccc4[nH]3)s2)cc1
[20] CCC(Sc1nc2cc3c(cc2c(=O)n1CCCCCC(=O)NCc1ccc2c(c1)OCO2)OCO3)C(=O)NCCCOC (stereo unspecified)
[21] COCCCNC(=O)CSc1nc2cc3c(cc2c(=O)n1CCCCCC(=O)NCc1ccc2c(c1)OCO2)OCO3
[22] CC1(C)CN(C2CCCCC2)C(=O)[C@H]1CC(=O)Nc1ccc(Br)cc1
[23] Cc1ccc(C(C2C(=O)CC(C)(C)CC2=O)C2C(=O)CC(C)(C)CC2=O)s1
[24] CCS(=O)(=O)c1ncc(Cl)c(C(=O)NCc2ccccc2)n1
Assay by compound | 19 | 20 | 21 | 22 | 23 | 24
RXFP1 antag | 5 | -113* | -3 | -4 | -68* | ?
ERG Ets-DNA blk | 0% | 3% | 1% | nt | 3% | -1%
Mito fusion act | nt | nt | nt | nt | -3% | nt
S-ASM inh | nt | nt | nt | nt | 2% | nt
miR-21 reporter | 0% | 0% | -1% | nt | 0% | ?
RXFP1 ag | 1% | 0% | 2% | nt | -2% | 1%

[25] COc1ccc(CNC(=O)c2nc(S(=O)(=O)Cc3ccccc3)ncc2Cl)cc1
[26] O=C(NCc1ccccc1)c1nc(S(=O)(=O)Cc2ccccc2)ncc1Cl
[27] O=C(Nc1ccc(Cl)cn1)C1C(c2ccccc2)C1(Cl)Cl (stereo unspecified)
[28] O=C(Nc1ccccc1)C1C(c2ccccc2)C1(Cl)Cl (stereo unspecified)
[29] COc1cc(CN(C(=O)COc2ccc(C)c(C)c2)c2ccccn2)cc(OC)c1OC
[30] CCC1CN(C(=O)N2CCC(C(=O)NCCCc3ccccc3)CC2)c2cc(C)ccc2O1 (stereo unspecified)
Assay by compound | 25 | 26 | 27 | 28 | 29 | 30
RXFP1 antag | -119*! | -113*! | -98* | -39 | 4 | -69*
ERG Ets-DNA blk | -8% | 0% | -1% | -5% | -1% | 2%
Mito fusion act | -18% | -24% | ? | 9% | nt | nt
S-ASM inh | -6% | -4% | -8% | -13% | nt | nt
miR-21 reporter | ? | ? | 5% | 22% | 8% | 4%
RXFP1 ag | -3% | 0% | 1% | -1% | -1% | 0%

[31] CCC1CN(C(=O)N2CCC(C(=O)NCCCc3ccccc3)CC2)c2ccccc2O1 (stereo unspecified)
[32] CC(=O)c1cc2ccccc2s1
[33] Cc1ccccc1N=C(NOCc1ccc(Cl)cc1Cl)c1nonc1N
[34] Cc1ccccc1N=C(NOCc1ccccc1)c1nonc1N
[35] C=CCSc1nc2c(C(=O)OCC)nnn2c2ccccc12
[36] CCOC(=O)c1nnn2c1nc(SCC(C)=O)c1ccccc12
Assay by compound | 31 | 32 | 33 | 34 | 35 | 36
RXFP1 antag | -13 | 14 | -7 | -10 | -11 | 22
ERG Ets-DNA blk | -4% | nt | -27% | -2% | -3% | -5%
Mito fusion act | nt | nt | 21% | 22µM* | ? | 3%
S-ASM inh | nt | nt | -8% | -6% | ? | 1%
miR-21 reporter | ? | nt | 20% | -13% | -3% | -3%
RXFP1 ag | 2% | nt | 1% | 1% | -1% | 16µM*

[37] Cc1ccccc1CC1C(=O)Nc2ccc(Br)cc21 (stereo unspecified)
[38] COc1ccc(Br)cc1CC1C(=O)Nc2ccccc21 (stereo unspecified)
[39] CCc1oc2ccccc2c1C(=O)c1cc(I)c(O)c(I)c1
[40] Cc1cc(C(=O)NNC(=O)/C=C/c2ccccc2Cl)c(C)o1
[41] COc1ccc(/C=C/C(=O)NNC(=O)c2cc(C)oc2C)cc1
[42] COc1ccc(NC(=O)/C=C/c2ccc(Cl)cc2)cc1
[43] Fc1ccc(CN2CCN(c3ncnc4scc(-c5ccc(F)cc5)c34)CC2)cc1
[44] Cc1ccc(/C=N/n2c(COc3ccccc3)n[nH]c2=S)cc1
[45] CC(C)c1ccc(/C=N/n2c(COc3ccccc3)n[nH]c2=S)cc1
Assay by compound | 37 | 38 | 39 | 40 | 41 | 42 | 43 | 44 | 45
RXFP1 antag | -12 | -69* | -16 | -3 | -62* | nt | -68* | -2 | -61*
ERG Ets-DNA blk | -3% | 0% | nt | 5% | 10% | nt | -7% | -5% | 1%
Mito fusion act | nt | nt | nt | 2% | -7% | 5.2µM* | 3% | -4% | -15%
S-ASM inh | nt | nt | nt | -1% | 1% | nt | -2% | -4% | -16%
miR-21 reporter | ? | 24% | nt | -6% | nt | nt | 0% | 1% | -5%
RXFP1 ag | 0% | -1% | nt | 1% | 3% | nt | -2% | 0% | 3%
